Data set [1] concerns Staphylococcus aureus. Put plainly: Antibacterial activity against Staphylococcus aureus KCTC 1621 assessed as growth inhibition after 18 to 20 hrs by broth microdilution method in presence of NaCl. Type of data set: functional. A general note: In broth dilution the organism is exposed to a series of concentrations in liquid medium.
Data set [2] deals with Pseudomonas aeruginosa. Briefly: Antibacterial activity against Pseudomonas aeruginosa KCTC 1637 assessed as growth inhibition after 18 to 20 hrs by broth microdilution method in presence of NaCl. Type of data set: functional.
The subject of data set [3] is Escherichia coli. Put plainly: Antibacterial activity against Escherichia coli KCTC 1682 assessed as growth inhibition after 18 to 20 hrs by broth microdilution method in presence of NaCl. Type of data set: functional.
Data set [4] relates to Escherichia coli. Put plainly: Antibacterial activity against Escherichia coli KCTC 1682 assessed as growth inhibition after 18 to 20 hrs by broth microdilution method. Type of data set: functional.
For data set [5], the system named is Salmonella typhimurium. Briefly: Antibacterial activity against Salmonella typhimurium KCTC 1926 assessed as growth inhibition after 18 to 20 hrs by broth microdilution method. It counts as functional, Salmonella enterica subsp. enterica serovar Typhimurium. The settings on record: Salmonella enterica.
A short description of data set [6]: Hemolytic activity in human RBC assessed as hemoglobin release after 1 hr. Type of data set: ADME, cell-based, Erythrocyte. The settings on record: red blood cells (RBC).
Data set [7] deals with Pseudomonas aeruginosa. Put plainly: Antibacterial activity against Pseudomonas aeruginosa KCTC 1637 assessed as growth inhibition after 18 to 20 hrs by broth microdilution method. Type of data set: functional.
For data set [8], the system named is Salmonella typhimurium. Briefly: Antibacterial activity against Salmonella typhimurium KCTC 1926 assessed as growth inhibition after 18 to 20 hrs by broth microdilution method in presence of NaCl. It counts as functional, Salmonella enterica subsp. enterica serovar Typhimurium. The conditions noted are these: Salmonella enterica.
The test system of data set [9] is Staphylococcus epidermidis. Put plainly: Antibacterial activity against Staphylococcus epidermidis KCTC 1917 assessed as growth inhibition after 18 to 20 hrs by broth microdilution method. Type of data set: functional.
The subject of data set [10] is Bacillus subtilis. Briefly: Antibacterial activity against Bacillus subtilis KCTC 3068 assessed as growth inhibition after 18 to 20 hrs by broth microdilution method in presence of NaCl. Type of data set: functional.
Data set [11] relates to Bacillus subtilis. Briefly: Antibacterial activity against Bacillus subtilis KCTC 3068 assessed as growth inhibition after 18 to 20 hrs by broth microdilution method. It counts as functional.
Data set [12] concerns Staphylococcus epidermidis. Put plainly: Antibacterial activity against Staphylococcus epidermidis KCTC 1917 assessed as growth inhibition after 18 to 20 hrs by broth microdilution method in presence of NaCl. Type of data set: functional.
Data set [13] concerns Staphylococcus aureus. Put plainly: Antibacterial activity against Staphylococcus aureus KCTC 1621 assessed as growth inhibition after 18 to 20 hrs by broth microdilution method. Type of data set: functional.

SMILES strings stand for the structures. Converted amounts (≈) assume the structure as drawn.

On to `CC[C@H](C)[C@H](NC(=O)CN)C(=O)NCC(=O)N[C@@H](C)C(=O)N[C@H](C(=O)N[C@@H](CC(C)C)C(=O)N[C@@H](CCCCN)C(=O)N[C@H](C(=O)N[C@@H](CC(C)C)C(=O)N[C@H](C(=O)N[C@H](C(=O)NCC(=O)N[C@@H](CC(C)C)C(=O)N1CCC[C@H]1C(=O)N[C@@H](C)C(=O)N[C@@H](CC(C)C)C(=O)N[C@H](C(=O)N[C@@H](CO)C(=O)N[C@@H](Cc1c[nH]c2ccccc12)C(=O)N[C@H](C(=O)N[C@@H](CCCCN)C(=O)N[C@@H](CCCNC(=N)N)C(=O)N[C@@H](CCCCN)C(=O)N[C@@H](CCCNC(=N)N)C(=O)N[C@@H](CCC(N)=O)C(=O)N[C@@H](CCC(N)=O)C(N)=O)[C@@H](C)CC)[C@@H](C)CC)[C@@H](C)O)[C@@H](C)O)C(C)C)C(C)C` [MELITTIN], for which the MIC (in general, the least concentration at which growth counts as inhibited) was determined as 2 µg/mL with Staphylococcus aureus [1]; 8 µg/mL in the data set with Pseudomonas aeruginosa [2]; 8 µg/mL in the data set with Escherichia coli [3]; 8 µg/mL (≈ 2.81 µM) in the data set with Escherichia coli [4]; 8 µg/mL (≈ 2.81 µM) with Salmonella typhimurium [5]; 8 µg/mL (≈ 2.81 µM) in the data set on Pseudomonas aeruginosa [7]. Further, the MIC in the data set on Salmonella typhimurium [8] amounted to 16 µg/mL; in data set [9] it was 8 µg/mL (≈ 2.81 µM); in the data set on Bacillus subtilis [10], 8 µg/mL; in the data set on Bacillus subtilis [11], 4 µg/mL (≈ 1.41 µM); in [12], 4 µg/mL; with Staphylococcus aureus [13], 4 µg/mL (≈ 1.41 µM). In [6], the HC50 – broadly, the concentration giving 50% haemolysis – at 1 h was found to be 10.5 µg/mL.
